# This is a selection; strong and weak results do not stand in their true shares. Inconclusive results are not listed. The source made the active and inactive calls. Calls come from the whole dose curve; as a rule, active = well fitted inhibition curve with a large enough effect; inconclusive = small, poorly fitted or top-dose-only effect; inactive = no such curve, though single readings can be large or run the other way.
# Protein sequences, listed by entry. Tags and fused reporters are not part of them.
# UniProt P83916, whole entry: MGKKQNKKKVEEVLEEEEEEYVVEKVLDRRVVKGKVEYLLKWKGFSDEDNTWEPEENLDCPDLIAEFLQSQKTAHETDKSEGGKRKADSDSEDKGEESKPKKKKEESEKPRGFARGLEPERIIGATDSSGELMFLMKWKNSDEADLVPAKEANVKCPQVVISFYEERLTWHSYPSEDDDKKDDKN
# Molecular target: Chromobox protein homolog 1 (Homo sapiens) (UniProt P83916)
# Test: HTS for Inhibitors of HP1-beta Chromodomain Interactions with Methylated Histone Tails; note: nearly all actives have a fitted effect of over 70% in size
# Conditions: AlphaScreen HP1-beta / biotin-H3K9me3 peptide binding; at 114 µM (top of the series)
row,Structure (SMILES),"activity change, negative = inhibition"
1,O=[N+]([O-])c1cc([N+](=O)[O-])c(Nc2nnnn2CCO)c([N+](=O)[O-])c1,inactive: -19.5%
2,CCCOc1ccc(NP(C)(=O)Oc2ccc(Cl)cc2)cc1 (stereo unspecified),inactive: 0.354%
3,CP(=O)(Nc1ccc(SC(F)(F)F)cc1)Oc1ccccc1 (stereo unspecified),inactive: 10.7%
4,COc1ccccc1OP(C)(=O)Nc1c(C)cccc1C (stereo unspecified),inactive: 66.7%
5,CN1CCCCC1COC(=O)C1(O)c2ccccc2CCc2ccccc21 (stereo unspecified),inactive: 19.2%
6,O=[N+]([O-])c1cc([N+](=O)[O-])c(-n2nnc3ccccc32)c([N+](=O)[O-])c1,inactive: 27.8%
7,Cc1nc2ccc3ccccc3c2s1.O=[N+]([O-])c1cc([N+](=O)[O-])c(O)c([N+](=O)[O-])c1,inactive: 10.3%
8,Cc1cc(C)cc(OP(C)(=O)Nc2ccc(SC(F)(F)F)cc2)c1 (stereo unspecified),inactive: 19.5%
9,CP(=O)(NC(=O)Nc1ccccc1)Oc1ccccc1 (stereo unspecified),inactive: 16.6%
10,CCc1ccc(OP(C)(=O)N2CCN(c3ccc([N+](=O)[O-])cc3)CC2)cc1 (stereo unspecified),inactive: -5.73%
11,CP(=O)(Oc1ccccc1)OC(c1ccccc1)C(F)(F)F (stereo unspecified),inactive: 35.2%
12,Cc1cccc(C)c1OP(C)(=O)Nc1ccc(SC(F)(F)F)cc1 (stereo unspecified),inactive: 17.3%
13,CP(=O)(Nc1ccc(SC(F)(F)F)cc1)Oc1ccc(Cl)cc1 (stereo unspecified),inactive: 39.7%
14,CP(=O)(Nc1ccccn1)Oc1ccc(Cl)cc1 (stereo unspecified),inactive: 30.8%
15,CCOP(C)(=S)SCC(=O)NC(C)C(=O)O (stereo unspecified),inactive: 39.4%
16,CCOC(=O)c1ccc(NP(C)(=O)Oc2ccc(OC)cc2)cc1 (stereo unspecified),inactive: 29.4%

row,Structure (SMILES),"activity change, negative = inhibition"
1,O=[N+]([O-])c1cc([N+](=O)[O-])c(O)c([N+](=O)[O-])c1.c1ccc(Oc2ccncc2)cc1,inactive: -6.75%
2,COc1ccccc1OP(C)(=O)Nc1ccccc1 (stereo unspecified),inactive: 9.92%
3,CP(=O)(Nc1ccccc1Br)Oc1ccccc1 (stereo unspecified),inactive: 45.5%
4,CP(=S)(Nn1cnnc1)Oc1ccccc1 (stereo unspecified),inactive: 10.2%
5,Cc1cccc(C)c1OP(C)(N)=O (stereo unspecified),inactive: 10.1%
6,CC(C)(C)c1ccc(OP(C)(=O)Nc2ccc(SC(F)(F)F)cc2)cc1 (stereo unspecified),inactive: 34.2%
7,O=[N+]([O-])c1ccc2c(c1)C=Nc1ccccc1O2,inactive: -4.08%
8,O=[N+]([O-])c1cc([N+](=O)[O-])c(Nc2cccnc2)c([N+](=O)[O-])c1,inactive: 18%
9,COc1ccc(OP(C)(=O)Nc2cccc(F)c2)cc1 (stereo unspecified),inactive: 60.3%
10,COc1ccccc1OP(C)(=O)Nc1cc(Cl)ccc1C (stereo unspecified),inactive: 41.2%
11,Cc1cc(C)cc(OP(C)(N)=O)c1 (stereo unspecified),inactive: 27.9%
12,CCOC(=O)c1ccc(NP(C)(=O)Oc2ccccc2)cc1 (stereo unspecified),inactive: 8.17%
13,Cc1ccc(NP(C)(=O)Oc2ccccc2)c(C)c1 (stereo unspecified),inactive: 54.4%
14,COc1ccccc1OP(C)(=O)Nc1ccc(C)cc1 (stereo unspecified),inactive: 16.1%
15,CCN(CC)CCCOC(=O)C(O)(c1ccccc1)c1ccccc1,inactive: 36.2%
